Calls of active or inactive are those of the source. The rule behind the calls is not given here.
Columns and labels:
Format in all cases: cell-based
[1] = target: T1, Histone-lysine N-methyltransferase EZH2 (Homo sapiens, UniProt Q15910); assay: Inhibition of EZH2-mediated proliferation of human ZR-75-1 cells after 6 days by chemiluminescence analysis
[2] = target: T1, Histone-lysine N-methyltransferase EZH2; assay: Inhibition of EZH2-mediated proliferation of human SKBR3 cells after 6 days by chemiluminescence analysis; settings: SK-BR-3
[3] = target: T1, Histone-lysine N-methyltransferase EZH2; assay: Inhibition of EZH2-mediated proliferation of human DU145 cells after 6 days by chemiluminescence analysis; settings: DU-145
[4] = target: T1, Histone-lysine N-methyltransferase EZH2; assay: Inhibition of EZH2-mediated nuclear H3K27 methylation in human HCC1806 cells at >1000 nM after 72 hrs by immunofluorescence analysis
In short: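 HCC1806 breast cancer cells were exposed to compound for 72 h. Nuclear H3K27me3 was quantified by an immunofluorescence imaging assay and normalized to total H3. […] Values are the mean of at least three independent replicates.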

Sequences of proteins named here, by UniProt entry; tags and fusion partners are left off.
UniProt Q15910, whole entry, looked up: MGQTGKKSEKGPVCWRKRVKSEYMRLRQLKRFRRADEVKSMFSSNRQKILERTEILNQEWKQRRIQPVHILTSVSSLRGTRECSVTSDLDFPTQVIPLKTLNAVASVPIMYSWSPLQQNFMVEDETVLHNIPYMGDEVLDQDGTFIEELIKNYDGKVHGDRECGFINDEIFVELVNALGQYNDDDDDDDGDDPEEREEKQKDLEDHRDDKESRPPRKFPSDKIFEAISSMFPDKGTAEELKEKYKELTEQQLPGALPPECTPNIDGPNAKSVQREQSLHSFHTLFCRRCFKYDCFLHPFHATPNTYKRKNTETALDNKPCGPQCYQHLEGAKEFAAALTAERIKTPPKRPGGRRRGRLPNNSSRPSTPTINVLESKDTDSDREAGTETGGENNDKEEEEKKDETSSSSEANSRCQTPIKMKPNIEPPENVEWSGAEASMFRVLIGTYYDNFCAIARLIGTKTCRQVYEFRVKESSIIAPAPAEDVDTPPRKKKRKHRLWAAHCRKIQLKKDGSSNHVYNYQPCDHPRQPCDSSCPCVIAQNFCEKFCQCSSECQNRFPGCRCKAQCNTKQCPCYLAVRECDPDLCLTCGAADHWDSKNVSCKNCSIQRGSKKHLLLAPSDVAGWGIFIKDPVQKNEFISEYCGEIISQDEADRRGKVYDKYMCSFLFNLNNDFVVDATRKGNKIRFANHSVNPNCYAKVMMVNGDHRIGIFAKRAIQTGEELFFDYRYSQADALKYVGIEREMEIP

[5] = target: T1, Histone-lysine N-methyltransferase EZH2; assay: Inhibition of EZH2-mediated proliferation of human PC3 cells after 6 days by chemiluminescence analysis; settings: PC-3
[6] = target: T1, Histone-lysine N-methyltransferase EZH2; assay: Inhibition of EZH2-mediated proliferation of human […] cells after 6 days by chemiluminescence analysis
[7] = target: T1, Histone-lysine N-methyltransferase EZH2; assay: Inhibition of EZH2-mediated nuclear H3K27 methylation in human HCC1806 cells after 72 hrs by immunofluorescence analysis
In short: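 HCC1806 breast cancer cells were exposed to compound for 72 h. Nuclear H3K27me3 was quantified by an immunofluorescence imaging assay and normalized to total H3. Values are the mean of at least three independent replicates.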

inhibition [1]: Active
inhibition [2]: Active
inhibition [3]: Active
inhibition [4]: > 90%
inhibition [5]: Active
inhibition [6]: Active
inhibition [7]: Dose-dependent effect
SMILES: CCCc1cc(C)[nH]c(=O)c1CNC(=O)c1cc(-c2ccnc(N3CCN(C)CC3)c2)cc2c1cnn2C(C)C

— ChEMBL document CHEMBL2202955, “Identification of Potent, Selective, Cell-Active Inhibitors of the Histone Lysine Methyltransferase EZH2” (ACS Med Chem Lett, 2012)
